Molecular target: Cannabinoid receptor 2 (Homo sapiens, UniProt P34972)
Test: Agonist activity at recombinant human CB2 receptor expressed in HEK293 cells assessed as increase in beta arrestin recruitment measured after 2 to 3 hrs by PathHunter assay relative to CP55940
Type: functional, cell-based

Sequences of proteins named here, by UniProt entry; tags and fusion partners are left off.
UniProt P34972, whole entry: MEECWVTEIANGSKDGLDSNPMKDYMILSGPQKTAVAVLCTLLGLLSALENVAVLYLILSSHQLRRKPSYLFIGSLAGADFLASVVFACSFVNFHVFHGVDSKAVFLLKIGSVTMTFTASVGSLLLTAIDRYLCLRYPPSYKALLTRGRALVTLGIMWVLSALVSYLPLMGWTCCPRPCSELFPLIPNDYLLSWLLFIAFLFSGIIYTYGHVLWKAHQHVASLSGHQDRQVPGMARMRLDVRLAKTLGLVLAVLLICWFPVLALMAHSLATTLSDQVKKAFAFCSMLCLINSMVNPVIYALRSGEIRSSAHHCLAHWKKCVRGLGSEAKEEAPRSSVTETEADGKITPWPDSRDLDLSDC

SMILES: O=C(NC1(C(F)(F)F)CC1)c1nn(-c2c[n+]([O-])ccn2)c2c1C[C@@H]1C[C@H]21
- Emax: 108%

Source: ChEMBL document CHEMBL4138258 (ACS Med Chem Lett, 2017)
